PABP FP inh: blocks human PABP binding to poly(A) RNA; AID 2014; 1% of 290,000 active; calls only at 35 µM; P11940; fluorescence polarization;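 also: calls also rest on retests at 20 µM and on dose response follow-up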
Yeast UUG start: alters start codon recognition fidelity in yeast. S. cerevisiae UUG-firefly luciferase reporter, luminescence/redox ratio. 350,000 tested, 0.13% active. activity score, % at 18.7 µM. AID 602363;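 active means replicate mean at a twofold rise or more, about +100% in these data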;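 further: firefly luciferase made from a UUG start codon reports start codon fidelity; reporter light over untreated wells divided by growth signal over untreated wells; some hits fall short of that in this replicate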
eIF4H FP inh: inhibitors of RNA binding by human eIF4H. Q15056. eIF4H fluorescence polarization binding assay. inhibition, % at 35 µM. 0.94% of 290,000 active;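 also: calls also rest on retests at 20 µM and on dose response follow-up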
DSG3 Ab inh: inhibitors of pemphigus antibody binding to human desmoglein-3; P32926; DSG3-coupled beads, scFv-anti-DSG3-GFP binding, flow cytometry; stronger effect = lower value; binding (percent of control), % at 10 µM; 0.48% of 310,000 active; AID 588358;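 active = binding more than 3 SD below its plate's average and above zero; inconclusive = below that plate limit but binding exactly zero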;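 also: hits lower antibody fragment binding to DSG3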
MLLE-PAM2 inh: blocks PAM2 peptide binding to the PABP1 MLLE domain. GST-MLLE / FITC-PAM2 fluorescence polarization. inhibition, % at 20 µM. 0.36% of 360,000 active; in the data active = inhibition above about 35%, passing the limit was not always enough;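 also: plate controls were DMSO wells with GST-MLLE for no effect and wells lacking GST-MLLE protein for full effect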
* = called active by the depositor; i = inactive; ? = inconclusive; nt = no result given; + = active, no number. An excerpt weighted towards active compounds, which were near 1.5% of everything screened. Unless noted, no rule for the calls is given here.

SMILES	PABP FP inh	Yeast UUG start	eIF4H FP inh	DSG3 Ab inh	MLLE-PAM2 inh
C[C@@H]1CN([C@H](C)CO)C(=O)c2cccc(NS(=O)(=O)c3ccc(F)cc3)c2O[C@H]1CN(C)S(=O)(=O)c1ccc(Cl)cc1	nt	0.2	nt	nt	nt
COc1ccccc1CN1CC[C@@H]2[C@@H](CO)Nc3ccc(-c4ccc(C(=O)N(C)C)cc4)cc3[C@@H]21	nt	0.8	nt	nt	nt
Cc1cc2ncn(C(=O)c3cc(-c4ccccc4)nc4ccccc34)c2cc1C	+	nt	active	98.4	11.2
CS(=O)(=O)N1N=C(c2cccs2)CC1c1ccccc1O (configuration not stated)	+	nt	59.3*	104.1	-10.2
COc1ccc(NC(=O)Nc2cccc3c2O[C@H](CN(C)C(=O)Nc2ccc(OC)cc2)[C@@H](C)CN([C@@H](C)CO)C3=O)cc1	nt	15.1	nt	nt	nt
O=C(NCCc1ccccc1)C1CCN(c2ncccn2)CC1	i	nt	-0.6	88.9*	7.1
CC(C)(C)OC(=O)N1CCCC1C(=O)NCCc1ccccc1 (configuration not stated)	+	-27.5	5.8	nt	-151.6
NS(=O)(=O)c1ccc(CCNC(=O)C2CCN(C(=O)Nc3ccccc3)CC2)cc1	nt	-6.8	nt	57.1*	-9.3
O=C(NCCc1ccccc1)C1CCN(C(=O)Nc2ccccc2)CC1	nt	-12.4	nt	106.8	-13.8
Cc1ccccc1C(=O)NC(=S)NCC(=O)c1ccccc1	i	-7.9	-9.6	102.0	25.9
O=C(CNC(=S)NC(=O)c1ccccc1Br)c1ccccc1	i	nt	-3.1	6.1*	1.2
C[C@@H]1CN([C@@H](C)CO)C(=O)c2cc(NC(=O)Cn3cnnn3)ccc2O[C@@H]1CN(C)C(=O)Nc1ccccc1	nt	0.0	nt	nt	nt
Cc1nn(C)c(C(=O)NC(=S)Nc2ccc([N+](=O)[O-])cc2)c1Cl	i	-12.4	-7.4	95.7	39.9*
O=C(Nc1ccc(C(=O)N2CCOCC2)cc1)c1ccc([N+](=O)[O-])cc1	i	-4.5	-15.6	108.4	13.7
O=C(NC(=S)Nc1ccc(C(=O)N2CCOCC2)cc1)c1ccc([N+](=O)[O-])cc1	i	-19.6	0.4	99.9	43.7*
Cc1nn(C)c(C(=O)NC(=S)Nc2ccccc2Br)c1Cl	i	-19.3	-4.4	nt	39.7
CO[C@H]1CN(C)C(=O)c2ccc(NC(=O)C3CC3)cc2OC[C@H](C)N(C(=O)CN(C)C)C[C@@H]1C	nt	-16.7	nt	nt	nt
CN(C)N=C1c2cc(S(=O)(=O)N(C)C)ccc2-c2ccc(S(=O)(=O)N(C)C)cc21	i	-13.5	2.3	100.2	8.7
CN(CCO)S(=O)(=O)c1ccc2c(c1)C(=NNC(N)=O)c1cc(S(=O)(=O)N(C)CCO)ccc1-2	i	-5.8	-3.1	-5.9*	8.6
CN(C)S(=O)(=O)c1ccc2c(c1)C(=NO)c1cc(S(=O)(=O)N(C)C)ccc1-2	i	-5.9	-4.2	76.5*	-0.4
Cc1ccc(S(=O)(=O)Nc2cccc3c2O[C@@H](CN(C)CC2CC2)[C@H](C)CN([C@H](C)CO)C3=O)cc1	nt	-1.5	nt	nt	nt
O=C(Nc1ccccc1)N1C[C@H]2[C@@H](c3ccccc31)[C@H](CO)N2C(=O)c1cccnc1	nt	-8.9	nt	nt	nt
O=C(NCc1ccccc1)c1ccc(Cl)c(NC2=NC3CS(=O)(=O)CC3S2)c1 (configuration not stated)	i	-15.1	-13.9	95.6	-124.9
COc1ccc(CNC(=O)c2ccc(Cl)c(NC3=NC4CS(=O)(=O)CC4S3)c2)cc1 (configuration not stated)	i	-13.4	6.1	67.6*	-124.0
COc1cccc(CNC(=O)CCC2CCCN(C(=O)c3cccc4c(C)c(C)[nH]c34)C2)c1 (configuration not stated)	+	nt	66.5*	105.9	7.8
COc1cccc(CNC(=O)CCC2CCCN(C(=O)c3ccccc3N(C)C)C2)c1 (configuration not stated)	i	-1.4	-12.7	102.5	2.4
CC12CCCC(CC(=O)O)(C1)NC(=O)C2 (configuration not stated)	nt	-8.2	nt	64.2*	3.1
C[C@H](CO)N1C[C@H](C)[C@@H](CN(C)C(=O)c2ccccc2)OCCCC[C@H](C)Oc2ccc(NC(=O)NC3CCCCC3)cc2C1=O	nt	16.0	nt	nt	nt
CSc1nsc(/C=C/Nc2ccc(F)cc2)c1C#N	+	nt	76.9*	94.9	-30.4
CCCc1cc(=O)oc2c(CNc3ccc(OCC)cc3)c(O)ccc12	+	-20.3	76.2	103.7	-36.7
C[C@@H]1CN([C@H](C)CO)C(=O)c2cc(NC(=O)Nc3ccc(F)cc3)ccc2O[C@@H](C)CCCCO[C@H]1CN(C)C(=O)Nc1ccc(F)cc1	nt	6.3	nt	nt	nt
O=c1cc(CSc2nnnn2-c2ccccc2)[nH]c2[nH]n(-c3ccccc3)c(=O)c12	+	-5.3	79.2*	95.3	-95.8
C[C@@H]1CN([C@H](C)CO)S(=O)(=O)c2ccc(-c3ccc(C#N)cc3)cc2O[C@H]1CN(C)C(=O)CN(C)C	nt	-0.3	nt	nt	nt
Cc1ccc2cc(C#N)c(N3CCCN(C(=O)C4CCCO4)CC3)nc2c1C (configuration not stated)	+	-17.0	93.8*	98.9	-4.2
Cc1ccc2cc(C#N)c(N3CCCC3)nc2c1C	i	-14.7	5.5	102.6	-11.6
O=C(Nc1ccc2c(c1)[C@H]1C[C@@H](CC(=O)N3CCc4ccccc4C3)O[C@H](CO)[C@H]1O2)C1CCC1	nt	-0.8	nt	nt	nt
O=C(C1CCN(S(=O)(=O)c2cccc3cccnc23)CC1)N1CCCC1	i	-30.1	-0.8	88.5*	5.4
CCOC(=O)c1ccccc1NC(=O)N1CCn2c(C)ccc2C1CC (configuration not stated)	+	12.2	?	118.6	4.8
CCC1c2ccc(C)n2CCN1C(=O)Nc1ccccc1C(=O)OC (configuration not stated)	+	nt	131.7	118.5	24.0
CCNC(=O)C[C@H]1CC[C@@H]2[C@@H](COc3ccc(NC(=O)Cc4cccs4)cc3C(=O)N2C)O1	nt	-19.6	nt	nt	nt

Looked up by compound from above (six):
SMILES	PABP FP inh	Yeast UUG start	eIF4H FP inh	DSG3 Ab inh	MLLE-PAM2 inh
O=C(Nc1ccccc1)N1C[C@H]2[C@@H](c3ccccc31)[C@H](CO)N2C(=O)c1cccnc1	nt	-8.9	nt	nt	nt
C[C@@H]1CN([C@H](C)CO)S(=O)(=O)c2ccc(-c3ccc(C#N)cc3)cc2O[C@H]1CN(C)C(=O)CN(C)C	nt	-0.3	nt	nt	nt
C[C@@H]1CN([C@H](C)CO)C(=O)c2cc(NC(=O)Nc3ccc(F)cc3)ccc2O[C@@H](C)CCCCO[C@H]1CN(C)C(=O)Nc1ccc(F)cc1	nt	6.3	nt	nt	nt
COc1cccc(CNC(=O)CCC2CCCN(C(=O)c3ccccc3N(C)C)C2)c1 (configuration not stated)	i	-1.4	-12.7	102.5	2.4
CC12CCCC(CC(=O)O)(C1)NC(=O)C2 (configuration not stated)	nt	-8.2	nt	64.2*	3.1
O=C(C1CCN(S(=O)(=O)c2cccc3cccnc23)CC1)N1CCCC1	i	-30.1	-0.8	88.5*	5.4

Next results:
SMILES	PABP FP inh	Yeast UUG start	eIF4H FP inh	DSG3 Ab inh	MLLE-PAM2 inh
N#C/C(=C/c1ccccc1[N+](=O)[O-])C(=O)NCc1ccco1	+	-14.4	63.1*	104.5	19.8
Cc1ccccc1NC(=O)/C(C#N)=C\c1cc(C)n(-c2ccc(C(=O)O)cc2)c1C	+	nt	?	96.2	-14.4
O=C(NCc1ccco1)c1ccc([N+](=O)[O-])o1	+	10.9	88.9*	112.8	8.5
N#C/C(=C\c1ccccc1[N+](=O)[O-])C(=O)NCc1ccccc1	+	nt	69.4*	113.7	57.1*
N#C/C(=C\C=C\c1ccccc1[N+](=O)[O-])C(=O)NCc1ccccc1	i	-1.5	8.3	nt	8.7
Cc1cc(/C=C(/C#N)C(=O)Nc2ccccc2)c(C)n1-c1cccnc1	i	0.2	14.1	101.2	7.5
C[C@H]1CN([C@@H](C)CO)C(=O)c2cc(C#CC3CCCC3)cnc2O[C@@H]1CN(C)S(C)(=O)=O	nt	1.3	nt	nt	nt
COc1ccc(-n2c(C)cc(/C=C(\C#N)C(=O)NCc3ccco3)c2C)cc1	+	nt	57.1	98.1	14.1
